The values below come from ChEMBL document CHEMBL1144321, “Synthesis and evaluation of novel peripherally restricted kappa-opioid receptor agonists” (Bioorg Med Chem Lett, 2005).

Chains of the proteins cited; added tags and fusions are not shown. Lines headed by an entry give the natural chain unless they say otherwise; changes in a name come on top.
UniProt P41145: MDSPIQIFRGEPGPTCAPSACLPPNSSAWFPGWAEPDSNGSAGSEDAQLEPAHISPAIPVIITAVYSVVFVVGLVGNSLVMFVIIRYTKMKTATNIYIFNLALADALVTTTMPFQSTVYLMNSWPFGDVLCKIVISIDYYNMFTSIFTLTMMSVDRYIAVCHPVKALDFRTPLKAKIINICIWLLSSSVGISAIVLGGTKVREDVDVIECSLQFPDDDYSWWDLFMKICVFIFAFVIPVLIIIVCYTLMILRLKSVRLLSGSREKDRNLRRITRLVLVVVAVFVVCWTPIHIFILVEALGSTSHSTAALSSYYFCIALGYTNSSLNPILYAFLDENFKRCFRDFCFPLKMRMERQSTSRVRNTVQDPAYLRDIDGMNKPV
UniProt P35372, whole entry, looked up: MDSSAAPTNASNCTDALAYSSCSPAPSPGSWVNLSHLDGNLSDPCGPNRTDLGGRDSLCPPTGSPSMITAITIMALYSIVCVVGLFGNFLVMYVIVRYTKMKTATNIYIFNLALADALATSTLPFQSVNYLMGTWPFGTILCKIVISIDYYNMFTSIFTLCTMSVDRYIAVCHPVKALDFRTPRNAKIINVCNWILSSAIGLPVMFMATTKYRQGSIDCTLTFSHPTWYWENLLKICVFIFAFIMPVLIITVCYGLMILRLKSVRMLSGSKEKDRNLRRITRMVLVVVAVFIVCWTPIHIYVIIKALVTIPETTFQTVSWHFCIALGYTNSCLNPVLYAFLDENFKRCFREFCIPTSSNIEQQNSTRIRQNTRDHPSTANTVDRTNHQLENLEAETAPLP
UniProt P41143, whole entry, looked up: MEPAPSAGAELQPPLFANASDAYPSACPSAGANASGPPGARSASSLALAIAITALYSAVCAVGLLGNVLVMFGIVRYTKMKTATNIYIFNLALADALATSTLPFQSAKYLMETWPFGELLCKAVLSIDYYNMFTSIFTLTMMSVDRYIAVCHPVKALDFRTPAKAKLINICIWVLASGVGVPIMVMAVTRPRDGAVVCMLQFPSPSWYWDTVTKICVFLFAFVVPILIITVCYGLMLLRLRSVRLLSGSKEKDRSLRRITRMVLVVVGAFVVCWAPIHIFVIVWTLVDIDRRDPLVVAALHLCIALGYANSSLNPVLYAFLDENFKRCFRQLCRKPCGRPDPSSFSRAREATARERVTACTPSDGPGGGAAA

The target in test [1] is Opioid receptors; mu & kappa (Homo sapiens) (UniProt P41145+P35372). Put plainly: Selectivity ratio of inhibition of kappa opioid receptor to that of mu receptor was determined.
The target of test [2] is Opioid receptors; delta & kappa (Homo sapiens) (UniProt P41145+P41143). Put plainly: Selectivity ratio of inhibition of kappa opioid receptor to that of delta receptor was determined.

Consider `CN(C(=O)Cc1ccc(C(F)(F)F)cc1)[C@H](CN1CCCC1)c1cccc(N(CC(=O)O)CC(=O)O)c1`, for which the Ratio in test [1] and in test [2] was more than 43 throughout.

For the compound `CN(C(=O)Cc1ccc(C(F)(F)F)cc1)[C@H](CN1CCCC1)c1cccc(NS(C)(=O)=O)c1`, the Ratio in test [1] was 420; in test [2], more than 1000.

Consider `CN(C(=O)Cc1ccc(C(F)(F)F)cc1)[C@H](CN1CCCC1)c1ccccc1`, for which the Ratio in test [1] and in test [2] was more than 1000 throughout.

As for `CN(C(=O)Cc1ccc(C(F)(F)F)cc1)[C@H](CN1CCCC1)c1cccc([N+](=O)[O-])c1`, the Ratio in test [1] is 920; in test [2], more than 1000.

For `CN(C(=O)Cc1ccc(C(F)(F)F)cc1)[C@H](CN1CCCC1)c1cccc(NC(=O)CCC(=O)O)c1`, the values for the Ratio in test [1] and in test [2] were 57 and more than 1000, respectively.

Take `CN(C(=O)Cc1ccc(C(F)(F)F)cc1)[C@H](CN1CCCC1)c1cccc(NS(N)(=O)=O)c1`: the Ratio in test [1] was 310; in test [2], more than 1000.

`CN(C(=O)Cc1ccc(C(F)(F)F)cc1)C(CN1CCCC1)c1cccc(OCC(=O)OC(C)(C)C)c1` (racemic): the figures for the Ratio in test [1] and in test [2] were 330 and 79, respectively.

As for `CN(C(=O)Cc1ccc(C(F)(F)F)cc1)C(CN1CCCC1)c1cccc(OCC(=O)O)c1` (racemic), the Ratio amounted to 350 in test [1] and 190 in test [2].

Turning to `CN(C(=O)Cc1ccc(Cl)c(Cl)c1)C(CN1CCCC1)c1cccc(OCC(=O)O)c1` (stereo not drawn) [ICI-204448], the Ratio in test [1] was 162; in test [2], 69.
